Assay [1] deals with Mus musculus. Description: Antinociceptive activity on mice by tail pinch assay after subcutaneous administration.
Assay [2] concerns Mus musculus. Description: Antinociceptive activity on mice by chemical irritation (HCl writhing) stimulus modalities after subcutaneous administration. For orientation: An intraperitoneal irritant provokes the stretching counted in writhing tests.
For assay [3], the system named is Mus musculus. Kind of assay: Antinociceptive activity on mice by tail flick assay after subcutaneous administration. In general terms: In hot-plate and tail-flick tests a longer latency is read as antinociception.

Experimental findings from ChEMBL document CHEMBL1153682, “Structure-activity-relationship pertaining to the north-west region of the kappa opioid agonist, U-50,488” (1994) are described below.

The structures appear in SMILES notation.

`CN(C(=O)Cc1ccc(Cl)c(Cl)c1)[C@H]1C=CCC[C@@H]1N1CCCC1`: the median effective dose (ED50) (usually the dose at which the effect has come halfway, by size or by number of responders) is 1 mg/kg in the assay with Mus musculus [1], 0.7 mg/kg in the assay with Mus musculus [2] and 1 mg/kg in the assay on Mus musculus [3].
